SMILES strings stand for the structures. Where “and” joins values, the source holds several entries; their conditions need not be identical. Equal entries are not always repeated. Where two headings read alike, the source gives them in different places.

In experiment [1] the test system is HL-60 (TB) leukemia cells.
Experiment [2] concerns COLO 205 colon cancer cells.
The test system of experiment [3] is HL-60 (TB) leukemia cells. Put plainly: cells. To be noted: Homo sapiens.
Experiment [4] concerns COLO 205 colon cancer cells. Put plainly: cells. To be noted: Homo sapiens, COLO 205, read-out: Percent Growth.
In another experiment the test system is CCRF-CEM leukemia cells. Nature of the experiment: cells. The note with it: Homo sapiens, read-out: LC50.
The test system of the next experiment is K-562 leukemia cells. Put plainly: cells. The note with it: Homo sapiens, K562, read-out: LC50.
The subject of the next experiment is RPMI-8226 leukemia cells. Put plainly: cells. The note with it: Homo sapiens, RPMI-8226, read-out: LC50.
Another experiment concerns SR leukemia cells. Put plainly: cells. The note with it: Homo sapiens, read-out: LC50.
Experiment [5] has as its system A549/ATCC non-small cell lung cancer cells. Put plainly: cells. To be noted: Homo sapiens, A549, read-out: LC50.
The subject of experiment [6] is EKVX non-small cell lung cancer cells. Put plainly: cells. The note with it: Homo sapiens, read-out: LC50.
Experiment [7] concerns NCI-H226 non-small cell lung cancer cells. Nature of the experiment: cells. The note with it: Homo sapiens, NCI-H226, read-out: LC50.
Experiment [8] relates to NCI-H322M non-small cell lung cancer cells. Nature of the experiment: cells. The note with it: Homo sapiens.
Experiment [9] deals with NCI-H460 non-small cell lung cancer cells. Nature of the experiment: cells. The note with it: Homo sapiens, NCI-H460, read-out: LC50.
Experiment [10] deals with HCC-2998 colon cancer cells. Nature of the experiment: cells. The note with it: Homo sapiens, HCC 2998, read-out: LC50.
Experiment [11] relates to HCT-116 colon cancer cells. Put plainly: cells. To be noted: Homo sapiens, HCT-116, read-out: LC50.
Experiment [12] relates to HCT-15 colon cancer cells. Nature of the experiment: cells. To be noted: Homo sapiens, HCT-15, read-out: LC50.
The subject of another experiment is HT29 colon cancer cells. Put plainly: cells. The note with it: Homo sapiens, HT-29, read-out: LC50.
For another experiment, the system named is KM12 colon cancer cells. Put plainly: cells. The note with it: Homo sapiens, KM12, read-out: LC50.
Experiment [13] has as its system SW-620 colon cancer cells. Nature of the experiment: cells. The note with it: Homo sapiens, SW-620, read-out: LC50.
Another experiment relates to LOX IMVI melanoma cells. Nature of the experiment: cells. To be noted: Homo sapiens, read-out: LC50.
The test system of another experiment is MALME-3M melanoma cells. Nature of the experiment: cells. To be noted: Homo sapiens, read-out: LC50.
In the next experiment the test system is M14 melanoma cells. Nature of the experiment: cells. To be noted: Homo sapiens, M14, read-out: LC50.
The next experiment concerns SK-MEL-2 melanoma cells. Nature of the experiment: cells. The note with it: Homo sapiens, SK-MEL-2, read-out: LC50.
The next experiment concerns SK-MEL-28 melanoma cells. Nature of the experiment: cells. The note with it: Homo sapiens, SK-MEL-28, read-out: LC50.
A further experiment relates to SK-MEL-5 melanoma cells. Put plainly: cells. To be noted: Homo sapiens, SK-MEL-5, read-out: LC50.
In another experiment the test system is UACC-257 melanoma cells. Nature of the experiment: cells. To be noted: Homo sapiens, UACC-257, read-out: LC50.
The next experiment concerns UACC-62 melanoma cells. Nature of the experiment: cells. The note with it: Homo sapiens, UACC-62, read-out: LC50.
Experiment [14] concerns IGR-OV1 ovarian cancer cells. Put plainly: cells. To be noted: Homo sapiens, IGROV-1, read-out: LC50.
The subject of experiment [15] is OVCAR-4 ovarian cancer cells. Nature of the experiment: cells. To be noted: Homo sapiens, OVCAR-4, read-out: LC50.
Experiment [16] concerns OVCAR-5 ovarian cancer cells. Nature of the experiment: cells. The note with it: Homo sapiens, OVCAR-5, read-out: LC50.
A further experiment has as its system 786-0 renal cancer cells. Put plainly: cells. The note with it: Homo sapiens, 786-0, read-out: LC50.
Another experiment deals with ACHN renal cancer cells. Nature of the experiment: cells. The note with it: Homo sapiens, read-out: LC50.
In a further experiment the test system is SN12C renal cancer cells. Nature of the experiment: cells. The note with it: Homo sapiens, read-out: LC50.
The test system of the next experiment is TK-10 renal cancer cells. Put plainly: cells. The note with it: Homo sapiens, TK-10, read-out: LC50.
The next experiment has as its system UO-31 renal cancer cells. Nature of the experiment: cells. The note with it: Homo sapiens, UO-31, read-out: LC50.
The subject of experiment [17] is PC-3 prostate cancer cells. Put plainly: cells. The note with it: Homo sapiens, read-out: LC50.
Experiment [18] has as its system DU-145 prostate cancer cells. Nature of the experiment: cells. The note with it: Homo sapiens, DU-145, read-out: LC50.
Another experiment deals with MCF7 breast cancer cells. Nature of the experiment: cells. The note with it: Homo sapiens, MCF7, read-out: LC50.
Experiment [19] deals with MDA-MB-231/ATCC breast cancer cells. Nature of the experiment: cells. The note with it: Homo sapiens, MDA-MB-231, read-out: LC50.
In experiment [20] the test system is MDA-MB-435 breast cancer cells. Nature of the experiment: cells. To be noted: Homo sapiens, MDA-MB-435, read-out: LC50.
The subject of experiment [21] is MDA-N breast cancer cells. Put plainly: cells. To be noted: Homo sapiens, read-out: LC50.
Experiment [22] deals with BT-549 breast cancer cells. Put plainly: cells. To be noted: Homo sapiens, BT-549, read-out: LC50.
Experiment [23] deals with T-47D breast cancer cells. Nature of the experiment: cells. To be noted: Homo sapiens, T47D, read-out: LC50.
Setting [24] is: HL-60, read-out: Percent Growth.

For `COc1cc2c(c(OC)c1OC)-c1ccc(C(C)=O)cc1C(NC(C)=O)CC2` (stereo not drawn), the “Percent Growth” value in [1] (1 µM) stood at 4%. Also, in [2] (0.1 µM), the “Percent Growth” value is given as -25%. Also, the “Percent Growth” value in experiment [2] (1 µM) is -64%. Further, in experiment [3] (setting [24]), the activity at 0.0001 µM amounted to 87%, the activity at 0.001 µM is -40%, the activity at 10 µM worked out at 9% and the activity at 100 µM came to 10%. Also, in experiment [4], the activity at 0.0001 µM was found to be 97% and the activity at 0.001 µM is 50%.
Turning to `CCCC(=O)NC1CCc2cc(OC)c(OC)c(OC)c2-c2ccc(C(C)=O)cc21` (stereo not drawn), the “Percent Growth” value in experiment [1] (0.01 µM) was -17%; in experiment [1] (1 µM) it was -23% and -30%; in experiment [1] (10 µM), -22% and -24%; in experiment [1] (100 µM) it was -22% and -14%; in experiment [2] (0.1 µM), -38%; in [2] (1 µM), -88% and -83%. In addition, the “Percent Growth” value in experiment [2] (10 µM) was -91% and -85%. For the same molecule, in [4], the activity at 100 µM is -98%.
In general, GI50 refers to the concentration giving 50% growth inhibition. A higher GI50 goes with lower sensitivity of the cells. In the case of `COc1cc2c(c(OC)c1OC)-c1ccc(OC)c(=O)cc1[C@@H](NC(C)=O)CC2` [Colchicine, reference compound], the CC50 in the experiment on CCRF-CEM leukemia cells is > 100 µM; in [3] (HL-60, read-out: LC50) it was > 100 µM; in the experiment with K-562 leukemia cells, > 100 µM; with RPMI-8226 leukemia cells, > 100 µM; in the experiment on SR leukemia cells it was > 100 µM; in experiment [5], > 100 µM. The CC50 in [6], in [7], in [8] (read-out: LC50), in experiment [9], in [10] and in [11] was > 100 µM throughout. Moreover, the CC50 in experiment [12] was > 100 µM; with HT29 colon cancer cells it was > 100 µM; in the experiment on KM12 colon cancer cells, > 100 µM; in experiment [13], > 100 µM; with LOX IMVI melanoma cells, 42.2 µM; in the experiment with MALME-3M melanoma cells it was > 100 µM. Moreover, the CC50 with M14 melanoma cells was > 100 µM; in the experiment with SK-MEL-2 melanoma cells, > 100 µM; in the experiment on SK-MEL-28 melanoma cells, > 100 µM; in the experiment with SK-MEL-5 melanoma cells, > 100 µM; in the experiment on UACC-257 melanoma cells, > 100 µM; with UACC-62 melanoma cells, 59.6 µM. Further, the CC50 (in experiment [14]; in [15]; in experiment [16]; with 786-0 renal cancer cells; with ACHN renal cancer cells; in the experiment with SN12C renal cancer cells) was > 100 µM in each case. The CC50 (in the experiment with TK-10 renal cancer cells; with UO-31 renal cancer cells; in experiment [17]; in [18]; with MCF7 breast cancer cells; in experiment [19]) was > 100 µM throughout. Besides, the CC50 in [20], in [21], in experiment [22] and in experiment [23] was > 100 µM in each case. In experiment [8], this molecule showed a 50% growth inhibitory concentration (GI50) of 0.0611 µM. Also, in experiment [8] (read-out: Percent Growth), the activity at 0.01 µM stood at 102%. The activity at 0.1 µM in [8] (read-out: Percent Growth) is 36%. For the same molecule, the activity at 1 µM in experiment [8] (read-out: Percent Growth) came out at 31%. In experiment [8] (read-out: Percent Growth), the activity at 10 µM came out at 25%. For the same molecule, the activity at 100 µM in experiment [8] (read-out: Percent Growth) worked out at 22%.

Source of the values: patent US5760092A, “Allocolchinones and uses thereof” (Brandeis University, priority 1996, dated 1998).
